Measured values: paper PMC9723548, “Sulfate adenylyl transferase kinetics and mechanisms of metabolic inhibitors of microbial sulfate respiration” (ISME Communications, 2021)

Chains of the proteins cited; added tags and fusions are not shown. Residues count along the entry.
UniProt Q30Z34, 1-427: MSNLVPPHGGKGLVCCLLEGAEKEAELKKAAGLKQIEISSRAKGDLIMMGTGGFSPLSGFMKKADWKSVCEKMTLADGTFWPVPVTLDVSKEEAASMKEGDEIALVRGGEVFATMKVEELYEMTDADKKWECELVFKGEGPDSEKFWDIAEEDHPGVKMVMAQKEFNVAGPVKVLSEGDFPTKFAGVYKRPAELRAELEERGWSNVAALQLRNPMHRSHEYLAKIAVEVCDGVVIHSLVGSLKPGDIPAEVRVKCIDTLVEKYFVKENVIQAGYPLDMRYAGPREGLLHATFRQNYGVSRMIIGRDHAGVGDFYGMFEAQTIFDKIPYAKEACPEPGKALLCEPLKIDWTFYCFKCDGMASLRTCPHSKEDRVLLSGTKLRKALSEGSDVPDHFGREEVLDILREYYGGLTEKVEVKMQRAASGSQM

Target: sulfate adenylyl transferase (Sat) / ATP sulfurylase (Oleidesulfovibrio alaskensis, UniProt Q30Z34)
Assay: pyrophosphate accumulation, modified molybdenum blue assay
Settings: read-out: KM (mM) / KI-Varied ATP; alternative substrate in place of sulfate; co-substrate ATP

## O=P(O)(O)F
  Km: 1.44 mM

## O=[As](O)(O)O
  Km: 0.0617 mM
